This note sets out measurements from PubChem BioAssay AID602261 (Sanford-Burnham Center for Chemical Genomics, 2012).

Amino acid sequences for entries named in this document (tags omitted).
UniProt P49327, whole entry: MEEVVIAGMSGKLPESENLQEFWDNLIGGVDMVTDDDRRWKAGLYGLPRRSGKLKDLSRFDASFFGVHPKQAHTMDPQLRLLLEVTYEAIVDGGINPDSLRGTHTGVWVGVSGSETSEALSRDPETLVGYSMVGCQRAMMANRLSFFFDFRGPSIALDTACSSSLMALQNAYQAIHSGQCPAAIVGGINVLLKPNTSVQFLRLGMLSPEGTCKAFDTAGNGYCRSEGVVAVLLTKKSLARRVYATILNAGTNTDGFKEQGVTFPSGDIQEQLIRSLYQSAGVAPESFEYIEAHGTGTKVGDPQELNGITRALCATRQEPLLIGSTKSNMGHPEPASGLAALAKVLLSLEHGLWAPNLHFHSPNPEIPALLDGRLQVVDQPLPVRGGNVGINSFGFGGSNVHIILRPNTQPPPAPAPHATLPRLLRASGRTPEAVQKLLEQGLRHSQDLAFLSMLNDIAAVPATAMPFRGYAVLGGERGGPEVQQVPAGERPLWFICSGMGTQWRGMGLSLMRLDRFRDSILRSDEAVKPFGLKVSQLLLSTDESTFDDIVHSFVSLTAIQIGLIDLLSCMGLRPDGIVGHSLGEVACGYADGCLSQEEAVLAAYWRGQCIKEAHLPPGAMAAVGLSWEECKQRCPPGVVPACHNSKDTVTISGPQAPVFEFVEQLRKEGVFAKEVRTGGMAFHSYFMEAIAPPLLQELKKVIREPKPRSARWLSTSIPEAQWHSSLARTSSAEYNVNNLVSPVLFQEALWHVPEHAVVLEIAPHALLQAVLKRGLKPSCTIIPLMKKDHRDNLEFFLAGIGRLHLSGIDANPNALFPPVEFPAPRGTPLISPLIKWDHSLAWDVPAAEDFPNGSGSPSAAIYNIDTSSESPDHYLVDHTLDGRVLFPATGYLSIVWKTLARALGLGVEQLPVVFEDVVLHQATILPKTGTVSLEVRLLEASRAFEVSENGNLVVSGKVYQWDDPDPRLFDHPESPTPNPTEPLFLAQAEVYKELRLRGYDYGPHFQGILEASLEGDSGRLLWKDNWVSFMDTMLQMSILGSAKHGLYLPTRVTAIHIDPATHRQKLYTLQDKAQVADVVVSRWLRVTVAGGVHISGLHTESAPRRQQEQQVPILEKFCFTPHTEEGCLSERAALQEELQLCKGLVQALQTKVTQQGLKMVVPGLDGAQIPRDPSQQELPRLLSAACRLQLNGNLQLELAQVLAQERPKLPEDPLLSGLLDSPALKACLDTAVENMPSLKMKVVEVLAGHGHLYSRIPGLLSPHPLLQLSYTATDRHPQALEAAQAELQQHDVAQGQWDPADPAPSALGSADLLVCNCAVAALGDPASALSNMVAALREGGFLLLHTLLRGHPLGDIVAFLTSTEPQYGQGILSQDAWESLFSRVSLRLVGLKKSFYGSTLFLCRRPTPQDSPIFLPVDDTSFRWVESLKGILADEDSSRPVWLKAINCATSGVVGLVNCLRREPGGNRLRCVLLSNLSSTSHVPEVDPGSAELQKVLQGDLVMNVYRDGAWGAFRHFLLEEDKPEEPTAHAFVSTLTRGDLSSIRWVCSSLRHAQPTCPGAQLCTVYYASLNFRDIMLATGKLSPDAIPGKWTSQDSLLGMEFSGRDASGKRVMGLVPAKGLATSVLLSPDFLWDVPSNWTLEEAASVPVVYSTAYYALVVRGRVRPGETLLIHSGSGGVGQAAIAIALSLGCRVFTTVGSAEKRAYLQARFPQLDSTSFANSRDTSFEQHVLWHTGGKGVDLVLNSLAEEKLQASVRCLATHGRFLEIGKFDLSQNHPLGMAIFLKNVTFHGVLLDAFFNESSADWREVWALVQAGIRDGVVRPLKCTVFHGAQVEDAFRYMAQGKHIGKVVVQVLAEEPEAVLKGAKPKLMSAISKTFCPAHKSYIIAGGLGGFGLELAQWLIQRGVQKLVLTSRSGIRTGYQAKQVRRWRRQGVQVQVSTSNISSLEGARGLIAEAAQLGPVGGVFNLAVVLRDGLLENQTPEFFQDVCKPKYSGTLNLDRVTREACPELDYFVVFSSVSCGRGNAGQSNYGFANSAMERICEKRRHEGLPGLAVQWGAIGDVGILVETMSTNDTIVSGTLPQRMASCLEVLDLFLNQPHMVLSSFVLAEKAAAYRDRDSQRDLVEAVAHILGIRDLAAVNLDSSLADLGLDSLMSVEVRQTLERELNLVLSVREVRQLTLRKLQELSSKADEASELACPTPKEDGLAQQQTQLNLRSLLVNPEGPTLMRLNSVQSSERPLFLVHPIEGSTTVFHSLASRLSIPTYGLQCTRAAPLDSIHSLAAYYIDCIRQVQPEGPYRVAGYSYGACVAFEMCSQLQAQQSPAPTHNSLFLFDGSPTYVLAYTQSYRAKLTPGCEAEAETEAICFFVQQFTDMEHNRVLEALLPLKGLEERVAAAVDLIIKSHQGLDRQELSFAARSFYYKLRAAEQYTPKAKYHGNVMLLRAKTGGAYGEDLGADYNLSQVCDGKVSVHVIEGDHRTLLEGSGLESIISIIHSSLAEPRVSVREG

Molecules are shown by their SMILES. The entries are a selection whose mix differs from that of the whole data set. Calls of active or inactive are those of the source.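 Rule for the calls: active = compounds whose normalised, plate-corrected inhibition of enzyme fluorescence in the single-dose primary screen is 50% or more; inactive = the rest.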

In this assay the target is Fatty acid synthase (Homo sapiens) (UniProt P49327). The assay is described as follows: FAS thioesterase domain inhibitors, primary screen, biochemical, fluorescence intensity, uHTS (AID 602261).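 Note: 0% = DMSO with enzyme and 100% = substrate without enzyme.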 The settings on record: recombinant FAS-TE, OMFH fluorogenic substrate, fluorescence endpoint; at 15 µM; stronger effect = higher value.
As to `COc1cccc(C(c2nnnn2C2CCCC2)N2CCC(n3c(=O)[nH]c4ccccc43)CC2)c1OC` (stereo not drawn), the inhibition was inactive: 11.2%.
As for `COc1cc(OC)cc(C(=O)NCC2(N3CCOCC3)CCCCC2)c1`, the figure is inactive: -4.1%.
The result for `COc1cccc(C(=O)N(c2cc(C)cc(C)c2)C2CCN(C(=O)OC(C)(C)C)CC2)c1` reads inactive: 21%; that for `CCC(CO)(C(=O)OC1CN2CCC1CC2)c1ccccc1` (stereo not drawn), inactive: -13.6%.
For `CN1CCC(Nc2ccc(Cl)cc2)CC1`, the inhibition was inactive: -5.5%.
For `CCOc1ncccc1C(=O)NCC1(N2CCOCC2)CCCCC1`, the inhibition was inactive: -6.6%.
For `CN1CCC(Nc2ccc(F)c(Cl)c2)CC1`, the inhibition is inactive: -1%.
Turning to `CC(C)(C)OC(=O)N1CCC(Nc2ccccc2)CC1`, the inhibition was inactive: -7%.
For the molecule `O=C(O)C1(Nc2ccccc2)CCN(Cc2ccccc2)CC1`, the inhibition is inactive: -2.1%.
Turning to `NN(c1ccccc1)C1CCN(CCc2ccccc2)CC1`, the inhibition is inactive: -6%.
On to `CCCOc1ccc(C(=O)NCC2(N(C)C)CCCCC2)cc1`, for which the inhibition is inactive: -5.6%.
As for `O=c1[nH]c2ccccc2n1C1CCN(C(c2cc3ccccc3o2)c2nnnn2C2CCCC2)CC1` (stereo not drawn), the figure is active: 58.1%.
As to `Cc1ccccc1NC1(C#N)CCN(Cc2ccccc2)CC1`, the inhibition was inactive: 2.7%.
Consider `CC(C)(C)n1nnnc1C(c1ccnc2ccccc12)N1CCC(n2c(=O)[nH]c3ccccc32)CC1` (stereo not drawn), for which the inhibition was inactive: 4.4%.
Take `CCN1CCC(Nc2cccc(F)c2)CC1`: the inhibition was inactive: -7%.
The result for `COc1ccc(C(c2nnnn2C2CCCCC2)N2CCC(n3c(=O)[nH]c4ccccc43)CC2)cc1` (stereo not drawn) reads inactive: 19.9%; that for `O=C(NCC1(N2CCCCC2)CCCCC1)c1ccco1`, inactive: -10.2%.
`Cn1c(=O)[nH]cc(N(CCCl)CCCl)c1=O`: the inhibition was inactive: -7.3%.
As to `CN(C)c1ccc(C(=O)NCC2(N3CCCCC3)CCCCC2)cc1`, the inhibition is inactive: -3.3%.
For the molecule `CC(=O)N(c1ccccc1)C1CCNCC1`, the inhibition was inactive: -11.1%.
`COc1cccc(C(c2nnnn2C2CCCCC2)N2CCC(n3c(=O)[nH]c4ccccc43)CC2)c1OC` (stereo not drawn): the inhibition was inactive: 28.6%.
`CCC(c1nnnn1C1CCCCC1)N1CCC(n2c(=O)[nH]c3ccccc32)CC1` (stereo not drawn): the inhibition was inactive: -1.6%.
Consider `O=c1[nH]c2ccccc2n1C1CCN(C(c2ccnc3ccccc23)c2nnnn2C2CCCCC2)CC1` (stereo not drawn), for which the inhibition is inactive: 21%.
The result for `COc1cc(OC)cc(C(=O)NCC2(N3CCCCC3)CCCCC2)c1` reads inactive: -6.9%.
As for `Cc1ccc(C(=O)NCC2(N3CCCCC3)CCCCC2)o1`, the inhibition is inactive: -3.5%.
With `Fc1ccccc1NC1CCN(Cc2ccccc2)CC1`, the inhibition was inactive: -5.5%.
The result for `Cc1ccc(NC2(C#N)CCN(Cc3ccccc3)CC2)cc1` reads inactive: 3%; that for `CN(C)C1(CNC(=O)c2cccc(C#N)c2)CCCCC1`, inactive: -4.3%; that for `c1ccc(CN2CCC(Nc3ccccc3)CC2)cc1`, inactive: -6.1%.
Consider `Cc1cc(N(CCCl)CCCl)ccc1C=O`, for which the inhibition was inactive: 3.1%.
In the case of `O=c1[nH]c2ccccc2n1C1CCN(C(c2ccccc2)c2nnnn2C2CCCC2)CC1` (stereo not drawn), the inhibition was inactive: 19.5%.
With `CCCN1CCC(Nc2cc(OC)cc(OC)c2)CC1`, the inhibition is inactive: -8.1%.
For `CC(C)(C)n1nnnc1C(c1cccc2ccccc12)N1CCC(n2c(=O)[nH]c3ccccc32)CC1` (stereo not drawn), the inhibition was active: 81.3%.
For `N#Cc1ccc(C(=O)NCC2(N3CCCCC3)CCCCC2)cc1`, the inhibition is inactive: -3%.
Consider `CC(C)(C)OC(=O)N1CCC(N(C(=O)c2ccccc2)c2ccc(Cl)cc2)CC1`, for which the inhibition was inactive: 13.5%.
Turning to `COc1cccc(C(c2nnnn2C(C)(C)C)N2CCC(n3c(=O)[nH]c4ccccc43)CC2)c1OC` (stereo not drawn), the inhibition was inactive: 14.2%.
For `CCOC(=O)N1CCC(Nc2ccc(C)cc2)CC1`, the inhibition is inactive: -0.9%.
In the case of `N/C(=N\O)c1c(N)no[n+]1[O-]`, the inhibition is inactive: -6%.
For `O=C(OC1CN2CCC1CC2)C1c2ccccc2C=Cc2ccccc21` (stereo not drawn), the inhibition was inactive: -9.7%.
Regarding `O=c1[nH]c2ccccc2n1C1CCN(C(c2cccs2)c2nnnn2C2CCCC2)CC1` (stereo not drawn), the inhibition was inactive: 2.6%.
In the case of `CCCCn1nnnc1C(c1cccc(OC)c1OC)N1CCC(n2c(=O)[nH]c3ccccc32)CC1` (stereo not drawn), the inhibition is inactive: 9.3%.
Turning to `CCCCn1nnnc1C(c1ccccc1)N1CCC(n2c(=O)[nH]c3ccccc32)CC1` (stereo not drawn), the inhibition was inactive: 9%.
Consider `COc1cc(C(=O)NCC2(N3CCOCC3)CCCCC2)cc(OC)c1C`, for which the inhibition was inactive: 12.9%.
In the case of `O=C(NCC1(N2CCOCC2)CCCCC1)c1cc(Br)ccc1Cl`, the inhibition is inactive: 7.1%.
As for `O=c1[nH]c2ccccc2n1C1CCN(C(c2cccs2)c2nnnn2C2CCCCC2)CC1` (stereo not drawn), the inhibition was inactive: 19.7%.
Turning to `COc1ccc(C(=O)NCC2(N3CCOCC3)CCCCC2)cc1OC`, the inhibition is inactive: -4.9%.
Regarding `O=c1[nH]c2ccccc2n1C1CCN(C(c2ccnc3ccccc23)c2nnnn2C2CCCC2)CC1` (stereo not drawn), the inhibition was inactive: 10.3%.
The result for `O=C(NCC1(N2CCCCC2)CCCCC1)c1cncc(Br)c1` reads inactive: -7.5%; that for `CN1CCC(Nc2cccc(F)c2)CC1`, inactive: -10.6%; that for `COc1ccc(C(c2nnnn2C2CCCC2)N2CCC(n3c(=O)[nH]c4ccccc43)CC2)cc1` (stereo not drawn), inactive: 0.4%.
Consider `Cc1ccc(C(=O)NCC2(N(C)C)CCCCC2)o1`, for which the inhibition is inactive: -4.6%.
For the molecule `CCCOc1ccc(C(=O)NCC2(N(C)C)CCCCC2)cc1OC`, the inhibition is inactive: -5.6%.
As for `CC(C)c1ccc(NC2CCN(C(=O)OC(C)(C)C)CC2)cc1`, the inhibition is inactive: 9.3%.
Turning to `CCCCn1nnnc1C(c1ccccc1OC(F)(F)F)N1CCC(n2c(=O)[nH]c3ccccc32)CC1` (stereo not drawn), the inhibition was inactive: 19.4%.
As for `COc1ccc(CN(CCCl)CCCl)cc1Cl`, the inhibition is inactive: 0.4%.
The result for `CN(C)c1cccc(C(=O)NCC2(N3CCCCC3)CCCCC2)c1` reads inactive: -4.4%; that for `COc1cc(OC)c(C(=O)NCC2(N(C)C)CCCCC2)cc1OC`, inactive: -3.5%; that for `O=C(NCC1(N2CCOCC2)CCCCC1)c1cc(F)c(F)cc1Cl`, inactive: 1.7%.
Take `CCC(c1nnnn1C(C)(C)C)N1CCC(n2c(=O)[nH]c3ccccc32)CC1` (stereo not drawn): the inhibition was inactive: 0.7%.
As to `CCCCn1nnnc1C(c1ccnc2ccccc12)N1CCC(n2c(=O)[nH]c3ccccc32)CC1` (stereo not drawn), the inhibition is inactive: -1.1%.
The result for `O=C(NCC1(N2CCCCC2)CCCCC1)c1cccc(C(F)(F)F)c1` reads inactive: 0.3%.
The result for `COc1cc(C(=O)NCC2(N3CCCCC3)CCCCC2)ccc1OC(F)F` reads inactive: -2.8%; that for `O=C(NCC1(N2CCOCC2)CCCCC1)c1cc(=O)[nH]c2ccccc12`, inactive: -10.4%.
Turning to `CCCCn1nnnc1C(c1cccc2ccccc12)N1CCC(n2c(=O)[nH]c3ccccc32)CC1` (stereo not drawn), the inhibition is active: 67.2%.
On to `CN1CCN(CCOC(=O)C(O)(c2ccccc2)c2ccccc2)CC1`, for which the inhibition is inactive: -10%.
For `CC(C)c1ccc(C(=O)NCC2(N3CCOCC3)CCCCC2)cc1`, the inhibition is inactive: 1.5%.
`COc1ccc(NC2CCN(C(=O)OC(C)(C)C)CC2)cc1`: the inhibition was inactive: -5.4%.
Regarding `CC(C)(C)n1nnnc1C(c1ccccc1OC(F)(F)F)N1CCC(n2c(=O)[nH]c3ccccc32)CC1` (stereo not drawn), the inhibition was inactive: 26.4%.
As to `O=C(NCC1(N2CCCCC2)CCCCC1)c1ccc(OC(F)F)cc1`, the inhibition was inactive: -8.8%.
Consider `CCN1CCC(Nc2ccc(Cl)cc2)CC1`, for which the inhibition is inactive: -1.6%.
The result for `N#CC1(Nc2ccccc2)CCN(CCc2ccccc2)CC1` reads inactive: 0.8%.
As for `O=c1[nH]c2ccccc2n1C1CCN(C(c2ccccc2OC(F)(F)F)c2nnnn2C2CCCC2)CC1` (stereo not drawn), the inhibition was inactive: 20.1%.
With `CSc1ccc(C(=O)NCC2(N3CCOCC3)CCCCC2)cc1`, the inhibition is inactive: -1.7%.
As for `O=C(NCC1(N2CCCCC2)CCCCC1)c1cccc([N+](=O)[O-])c1`, the figure is inactive: -1.2%.
The result for `O=c1[nH]c2ccccc2n1C1CCN(C(c2ccccc2)c2nnnn2C2CCCCC2)CC1` (stereo not drawn) reads inactive: 34.3%; that for `COc1cc(C(=O)NCC2(N(C)C)CCCCC2)ccc1OC(F)F`, inactive: -7.5%; that for `CCOC(=O)N1CCC(Nc2cccc(C)c2)CC1`, inactive: -3.3%.
The result for `O=c1[nH]c2ccccc2n1C1CCN(C(c2cccc3ccccc23)c2nnnn2C2CCCC2)CC1` (stereo not drawn) reads active: 71.7%; that for `CC(C)(C)n1nnnc1C(c1ccccc1)N1CCC(n2c(=O)[nH]c3ccccc32)CC1` (stereo not drawn), inactive: 5.8%.
`O=C1CCN(Cc2ccccc2)CC1`: the inhibition was inactive: -1.9%.
Consider `CCOc1ccc(C)cc1CN(CCCl)CCCl`, for which the inhibition is inactive: -1%.
`O=C(NCC1(N2CCCCC2)CCCCC1)c1ccc(F)cc1`: the inhibition is inactive: -1.9%.
Take `O=P1(N(CCCl)CCCl)SCCCS1`: the inhibition was inactive: -4.4%.
In the case of `CCCCn1nnnc1C(c1cc2ccccc2o1)N1CCC(n2c(=O)[nH]c3ccccc32)CC1` (stereo not drawn), the inhibition was inactive: 36.3%.
`CCCCOc1ccc(C(=O)NCC2(N3CCOCC3)CCCCC2)cc1`: the inhibition is inactive: 6.2%.
As for `COc1ccc(NC2CCN(CCc3ccccc3)CC2)c(OC)c1`, the figure is inactive: -10.6%.
The result for `CCOC(=O)N1CCC(Nc2ccc(F)cc2)CC1` reads inactive: -2.7%; that for `O=c1[nH]c2ccccc2n1C1CCN(C(c2ccccc2OC(F)(F)F)c2nnnn2C2CCCCC2)CC1` (stereo not drawn), inactive: 29%.
With `O=C(NCC1(N2CCCCC2)CCCCC1)c1ccc(Cl)nc1`, the inhibition was inactive: -5.9%.
With `Cc1cc(C)cc(N(C(=O)c2ccccc2)C2CCN(C(=O)OC(C)(C)C)CC2)c1`, the inhibition is inactive: 14.3%.
For `O=C(NCC1(N2CCOCC2)CCCCC1)c1cc2ccccc2o1`, the inhibition is inactive: -1.3%.
As to `O=C(OC1CN2CCC1CC2)C1c2ccccc2Oc2ccccc21` (stereo not drawn), the inhibition was inactive: -4.3%.
As for `O=c1[nH]c2ccccc2n1C1CCN(C(c2cc3ccccc3o2)c2nnnn2C2CCCCC2)CC1` (stereo not drawn), the figure is active: 69.4%; as for `N#CC1(Nc2ccccc2)CCN(Cc2ccccc2)CC1`, inactive: -0.1%; as for `O=C(NCC1(N2CCCCC2)CCCCC1)c1ccc(Cl)s1`, inactive: -3.7%.
The result for `COc1ccc(Cl)cc1C(=O)NCC1(N2CCOCC2)CCCCC1` reads inactive: 14.5%; that for `CCOC(=O)N1CCC(Nc2ccc(OC)cc2)CC1`, inactive: -9.9%; that for `CCCCn1nnnc1C(c1ccc(OC)cc1)N1CCC(n2c(=O)[nH]c3ccccc32)CC1` (stereo not drawn), inactive: -8.7%.
In the case of `COc1ccc(C(=O)NCC2(N3CCCCC3)CCCCC2)cc1`, the inhibition was inactive: -3.5%.
As for `CCC(c1nnnn1C1CCCC1)N1CCC(n2c(=O)[nH]c3ccccc32)CC1` (stereo not drawn), the figure is inactive: -2.7%.
For the molecule `CC(C)(C)OC(=O)N1CCC(N(C(=O)c2ccccc2)c2ccc(F)cc2)CC1`, the inhibition was inactive: -0.4%.
As for `COc1ccc(C(=O)NCC2(N3CCCCC3)CCCCC2)c(OC)c1OC`, the inhibition is inactive: -3%.
With `O=C(NCC1(N2CCCCC2)CCCCC1)c1ccc(=O)[nH]c1`, the inhibition was inactive: -6.7%.
Take `CCCCn1nnnc1C(c1cccs1)N1CCC(n2c(=O)[nH]c3ccccc32)CC1` (stereo not drawn): the inhibition is inactive: 4.2%.
As for `O=C(NCC1(N2CCCCC2)CCCCC1)c1cccs1`, the figure is inactive: -2.5%; as for `CCCCn1nnnc1C(CC)N1CCC(n2c(=O)[nH]c3ccccc32)CC1` (stereo not drawn), inactive: -7.8%.
Consider `CSc1ccccc1C(=O)NCC1(N2CCCCC2)CCCCC1`, for which the inhibition is inactive: -0.3%.
For `Cc1cccc(NC2(C#N)CCN(Cc3ccccc3)CC2)c1`, the inhibition was inactive: 7.5%.
